Measured vapor pressure values of organic chemicals

Source: data files of OPERA 2.9 (Mansouri et al.), github.com/kmansouri/OPERA.

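The numbers are reported measurements, compiled and curated for the OPERA QSAR suite. The files give a single number for a compound and property, which may rest on several reports. Conditions of the individual experiments are not part of the data. A value may pool stereoisomers or salt forms, and the file does not say which form was measured. Unmarked limits or estimates from the upstream databases cannot be ruled out.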

Vapor pressures (log10 mmHg) refer to near room temperature, 15 to 30 °C; higher is more volatile. Cells with "–" have no entry in this list. "via" names the databases from which the curators took the value.

structure (SMILES),name,vapor pressure (log10 mmHg),via
COc1cccc(C(C)N)c1 (stereo not drawn),1-(3-methoxyphenyl)ethanamine,-1.699,eChemPortal
COC(=O)CCCCC(=O)O,Methyl hydrogen adipate,-1.955,eChemPortal
CC/C=C\C#N,(2Z)-2-Pentenenitrile,1.225,eChemPortal
Cc1ccc([Si](Cl)(Cl)Cl)cc1,Trichloro-p-tolylsilane,0.639,eChemPortal
O=C=NS(=O)(=O)c1ccccc1C(F)(F)F,"Benzenesulfonyl isocyanate, 2-(trifluoromethyl)-",-1.423,eChemPortal
CC(=O)O.CCCCCC1=C(O)CCC1CC(=O)OC (stereo not drawn),–,-3.824,eChemPortal
FCOC(F)(F)C(F)(F)C(F)(F)F,"1,1,1,2,2,3,3-Heptafluoro-3-(fluoromethoxy)propane",2.571,ICF
C#CCC(O[Si](CC)(CC)CC)[Si](CC)(CC)CC (stereo not drawn),Triethyl{[1-(triethylsilyl)but-3-yn-1-yl]oxy}silane,-2.853,eChemPortal
COc1ccc(Cl)cc1,"Benzene, 1-chloro-4-methoxy-",-3.614,OCHEM
ClC1=C(Cl)C2(Cl)C(Cl)=C(Cl)[C@@H]3C[C@H]1C2C3Cl (stereo partly drawn),beta-Chlordene,-4.699,OCHEM
CCCCCCCC/C=C\CCCCCCCCO[PH](=O)OCCCCCCCC/C=C\CCCCCCCC,–,-6.364,eChemPortal
Clc1ccccc1-c1ccc(Cl)c(Cl)c1Cl,–,-4.035,OCHEM
CCO[Si](C)(CCl)OCC,(Chloromethyl)(diethoxy)methylsilane,1.276,eChemPortal
C=CCCCCCCCCC(=O)O[Si](C)(C)C,Trimethylsilyl 10-undecenoate,-3.824,eChemPortal
CNC(=O)NC,"N,N'-Dimethylurea",-3.502,"PubChem, eChemPortal"
CO[Si](CC[Si](OC)(OC)OC)(OC)OC,"2,7-Dioxa-3,6-disilaoctane, 3,3,6,6-tetramethoxy-",-1.924,eChemPortal
CC1CCNCC1,"Piperidine, 4-methyl-",1.079,eChemPortal
CCCCCCCCCC(=O)N(C)C,"N,N-Dimethyldecan-1-amide",-3.084,"OCHEM, eChemPortal"
CCCCN(CCCC)c1ccc2c(c1)Oc1cc(C)c(Nc3ccccc3)cc1C21OC(=O)c2ccccc21 (stereo not drawn),–,-5.71,eChemPortal
CCNCCO,2-(Ethylamino)ethanol,-0.371,eChemPortal
Clc1cc2ccccc2cc1Cl,"2,3-Dichloronaphthalene",-2.606,OCHEM
CNC[C@H](O)[C@@H](O)[C@H](O)[C@H](O)CO,"(2R,3R,4R,5S)-6-(Methylamino)hexane-1,2,3,4,5-pentol",-7.673,eChemPortal
CO[C@@H]1O[C@H](COS(=O)(=O)c2ccc(C)cc2)[C@H]2OC(C)(C)O[C@@H]12,–,-2.001,eChemPortal
O=C=NCCCCCCN=C=O,"1,6-Diisocyanatohexane",-2.28,eChemPortal
O=C([O-])[C@H](O)[C@@H](O)C(=O)[O-].[Na+].[Na+],"Butanedioic acid, 2,3-dihydroxy- (2R,3R)-, sodium salt (1:2)",-8.648,eChemPortal
Clc1cccc(-c2c(Cl)cc(Cl)cc2Cl)c1,–,-3.896,OCHEM
Cl.N[C@@H](Cc1cnc[nH]1)C(=O)O.O,L-Histidine hydrochloride monohydrate,-4.736,eChemPortal
Cc1ncc([N+](=O)[O-])n1CCO,Metronidazole,-6.523,OCHEM
CC(O)COc1ccccc1 (stereo not drawn),1-Phenoxy-2-propanol,-2.393,"PubChem, eChemPortal"
Clc1ccc(-c2c(Cl)cccc2Cl)c(Cl)c1,–,-3.625,OCHEM
CC(=O)CCCC(C)CCC=C(C)C (stereo not drawn),"6,10-Dimethyl-9-undecen-2-one",-2.347,eChemPortal
C[Si](Cl)(Cl)CCl,Dichloro(chloromethyl)methylsilane,1.051,eChemPortal
COC(F)(F)C(F)(F)C(F)(F)C(F)(F)C(F)(F)F,"1,1,1,2,2,3,3,4,4,5,5-Undecafluoro-5-methoxypentane",1.845,ICF
CO[Si](OC)(OC)OC,Tetramethyl orthosilicate,1.13,eChemPortal
C=C(C)CS(=O)(=O)[O-].[Na+],Sodium 2-methylprop-2-ene-1-sulfonate,-9.966,eChemPortal
CC(=O)C(C)C=CC1CC=C(C)C1(C)C (stereo not drawn),–,-2.171,eChemPortal
CCCCCCCCCCCCCCCCCCOC(=O)CCSCCC(=O)OCCCCCCCCCCCCCCCCCC,Distearyl thiodipropionate,-7.309,"OFMPub, eChemPortal"
CCN(CC)CCNC(=O)c1cc(Cl)c(N)cc1OC,Metoclopramide,-8.337,OCHEM
CCCCC(CC)COC(=O)COc1ccc(Cl)cc1Cl (stereo not drawn),"2,4-D 2-EHE",-3.445,PubChem
Cc1ccccc1S(N)(=O)=O,o-Toluenesulfonamide,-6.305,eChemPortal
C/C=C/C(C)(C)C,"(E)-4,4-Dimethylpent-2-ene",2.045,OCHEM
NCCCCCCCCCCCCN,"1,12-Dodecanediamine",-3.659,eChemPortal
O=C(Cl)c1cc(Cl)cc(Cl)c1,"3,5-Dichlorobenzoyl chloride",-1.322,eChemPortal
CCCOCC(C)OCC(C)O (stereo not drawn),Butyl dipropasol solvent,-0.921,eChemPortal
ClC(Cl)(Cl)C1CO1 (stereo not drawn),"1,2-Epoxy-3,3,3-trichloropropane",1.064,PubChem
Clc1ccc(-c2cccc(Cl)c2Cl)cc1Cl,–,-5.907,OCHEM
NCCCCCCCCCN,Nonamethylenediamine,-1.591,eChemPortal
COc1cc(C)cc(OC)c1OC,"3,4,5-Trimethoxytoluene",-2.21,eChemPortal
C=CC(C)(O)CC (stereo not drawn),"1-Penten-3-ol, 3-methyl-",0.836,eChemPortal
CCCCC(CC)COC(=O)CC#N (stereo not drawn),2-Ethylhexyl cyanoacetate,-2.491,eChemPortal
CCOCCCNC(=O)C(O)C(C)(C)CO (stereo not drawn),"N-(3-Ethoxypropyl)-2,4-dihydroxy-3,3-dimethylbutanamide",-2.481,eChemPortal
Clc1ccc(-c2c(Cl)cc(Cl)c(Cl)c2Cl)cc1,"2,3,4,4',6-Pentachlorobiphenyl",-4.595,OCHEM
CC1(C)CC(=O)CC(C)(C)N1,"2,2,6,6-Tetramethyl-4-piperidone",-0.759,eChemPortal
C=C(C)C(=O)OCCN=C=O,2-Isocyanatoethyl methacrylate,-0.726,eChemPortal
CCCCN(C)C,"N,N-Dimethylbutylamine",1.701,eChemPortal

A selection of 9 entries from above:

{"smiles": "O=C(Cl)c1cc(Cl)cc(Cl)c1", "name": "3,5-Dichlorobenzoyl chloride", "vapor pressure (log10 mmHg)": "-1.322", "via": "eChemPortal"}
{"smiles": "CNC(=O)NC", "name": "N,N'-Dimethylurea", "vapor pressure (log10 mmHg)": "-3.502", "via": "PubChem, eChemPortal"}
{"smiles": "CC(=O)O.CCCCCC1=C(O)CCC1CC(=O)OC", "stereo": "stereo not drawn", "vapor pressure (log10 mmHg)": "-3.824", "via": "eChemPortal"}
{"smiles": "CC(=O)CCCC(C)CCC=C(C)C", "stereo": "stereo not drawn", "name": "6,10-Dimethyl-9-undecen-2-one", "vapor pressure (log10 mmHg)": "-2.347", "via": "eChemPortal"}
{"smiles": "C/C=C/C(C)(C)C", "name": "(E)-4,4-Dimethylpent-2-ene", "vapor pressure (log10 mmHg)": "2.045", "via": "OCHEM"}
{"smiles": "NCCCCCCCCCCCCN", "name": "1,12-Dodecanediamine", "vapor pressure (log10 mmHg)": "-3.659", "via": "eChemPortal"}
{"smiles": "O=C([O-])[C@H](O)[C@@H](O)C(=O)[O-].[Na+].[Na+]", "name": "Butanedioic acid, 2,3-dihydroxy- (2R,3R)-, sodium salt (1:2)", "vapor pressure (log10 mmHg)": "-8.648", "via": "eChemPortal"}
{"smiles": "CNC[C@H](O)[C@@H](O)[C@H](O)[C@H](O)CO", "name": "(2R,3R,4R,5S)-6-(Methylamino)hexane-1,2,3,4,5-pentol", "vapor pressure (log10 mmHg)": "-7.673", "via": "eChemPortal"}
{"smiles": "CO[Si](CC[Si](OC)(OC)OC)(OC)OC", "name": "2,7-Dioxa-3,6-disilaoctane, 3,3,6,6-tetramethoxy-", "vapor pressure (log10 mmHg)": "-1.924", "via": "eChemPortal"}